{"sequences": {"note": "Protein sequences, listed by entry. Tags and fused reporters are not part of them. Residues count along the entry.", "UniProt P02791, 2-175 limits assumed": "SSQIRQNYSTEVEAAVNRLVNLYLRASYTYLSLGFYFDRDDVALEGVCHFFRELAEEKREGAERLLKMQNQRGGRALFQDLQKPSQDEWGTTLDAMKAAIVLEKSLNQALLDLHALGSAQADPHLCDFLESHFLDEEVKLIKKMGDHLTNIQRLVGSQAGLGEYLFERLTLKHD"}, "source": "PubChem BioAssay AID485281", "about": "(National Center for Advancing Translational Sciences (NCATS), 2010)", "note": "The entries are a selection whose mix differs from that of the whole data set. Inconclusive results are not listed. Calls of active or inactive are those of the source. Calls come from the whole dose curve; as a rule, active = well fitted inhibition curve with a large enough effect; inconclusive = small, poorly fitted or top-dose-only effect; inactive = no such curve, though single readings can be large or run the other way. % is set by controls: 0 for no effect and ±100 for the full control effect.", "data": [{"biological_target": "Ferritin light chain (Equus caballus) (UniProt P02791)", "assay": "qHTS Assay for Identification of Novel General Anesthetics; note: nearly all actives have a fitted effect of over 20% in size", "conditions": "apoferritin/1-aminoanthracene competitive binding, fluorescence; at 77.5 µM (top of the series)", "values": [{"compound": "CCN1CCC(Nc2cccc(F)c2)CC1", "activity change, negative = displacement": "inactive: -11.8%"}, {"compound": "CC(C)(C)c1ccc(C(=O)NCC2(N3CCOCC3)CCCCC2)cc1", "activity change, negative = displacement": "inactive: -8.21%"}, {"compound": "CN(C)c1ccc(C(=O)NCC2(N3CCCCC3)CCCCC2)cc1", "activity change, negative = displacement": "inactive: -1.35%"}, {"compound": "Cc1ccccc1C(=O)NCC1(N(C)C)CCCCC1", "activity change, negative = displacement": "inactive: 5.4%"}, {"compound": "COc1cc(OC)cc(C(=O)NCC2(N3CCCCC3)CCCCC2)c1", "activity change, negative = displacement": "inactive: 1.95%"}, {"compound": "CN(C)C1(CNC(=O)c2ccc(C(C)(C)C)cc2)CCCCC1", "activity change, negative = displacement": "inactive: -2.9%"}, {"compound": "Fc1ccccc1NC1CCN(Cc2ccccc2)CC1", "activity change, negative = displacement": "inactive: -11.2%"}, {"compound": "CCC(CO)(C(=O)OC1CN2CCC1CC2)c1ccccc1", "note": "(centres undefined)", "activity change, negative = displacement": "inactive: -7.55%"}, {"compound": "COc1cc(OC)cc(C(=O)NCC2(N3CCOCC3)CCCCC2)c1", "activity change, negative = displacement": "inactive: -1.56%"}, {"compound": "COc1cc(C(=O)NCC2(N3CCOCC3)CCCCC2)cc(OC)c1OC", "activity change, negative = displacement": "inactive: 9.02%"}, {"compound": "COc1cccc(C(=O)N(c2cc(C)cc(C)c2)C2CCN(C(=O)OC(C)(C)C)CC2)c1", "activity change, negative = displacement": "inactive: 2.6%"}, {"compound": "CCCOc1ccc(C)cc1CN(CCCl)CCCl", "activity change, negative = displacement": "inactive: 0.89%"}, {"compound": "CN1CCC(Nc2ccc(Cl)cc2)CC1", "activity change, negative = displacement": "inactive: -1.25%"}, {"compound": "CCOc1ncccc1C(=O)NCC1(N2CCOCC2)CCCCC1", "activity change, negative = displacement": "inactive: -1.95%"}, {"compound": "CN1CCC(Nc2ccc(F)c(Cl)c2)CC1", "activity change, negative = displacement": "inactive: -13.3%"}, {"compound": "CCCOc1ccc(C(=O)NCC2(N(C)C)CCCCC2)cc1", "activity change, negative = displacement": "inactive: 0.985%"}, {"compound": "CC(C)(C)OC(=O)N1CCC(Nc2ccccc2)CC1", "activity change, negative = displacement": "inactive: -7.98%"}, {"compound": "O=C(O)C1(Nc2ccccc2)CCN(Cc2ccccc2)CC1", "activity change, negative = displacement": "inactive: 3.98%"}, {"compound": "N/C(=N\\O)c1c(N)no[n+]1[O-]", "activity change, negative = displacement": "inactive: -9.94%"}, {"compound": "CCOC(=O)N1CCC(Nc2ccc(C)cc2)CC1", "activity change, negative = displacement": "inactive: -4.48%"}, {"compound": "O=C(OC1CN2CCC1CC2)C1c2ccccc2C=Cc2ccccc21", "note": "(centres undefined)", "activity change, negative = displacement": "inactive: -8.85%"}, {"compound": "O=C(O)c1cccc(Nc2c([N+](=O)[O-])cc([N+](=O)[O-])cc2[N+](=O)[O-])c1", "activity change, negative = displacement": "inactive: 0.278%"}, {"compound": "COc1ccc(C(=O)NCC2(N3CCOCC3)CCCCC2)cc1OC", "activity change, negative = displacement": "inactive: -1.32%"}, {"compound": "c1ccc(CN2CCC(Nc3ccccc3)CC2)cc1", "activity change, negative = displacement": "inactive: -9.46%"}, {"compound": "O=C(NCC1(N2CCOCC2)CCCCC1)c1ccccc1", "activity change, negative = displacement": "inactive: 13.2%"}, {"compound": "CCCN1CCC(Nc2cc(OC)cc(OC)c2)CC1", "activity change, negative = displacement": "inactive: -6.64%"}, {"compound": "CN(C)C1(CNC(=O)c2cccc(C#N)c2)CCCCC1", "activity change, negative = displacement": "inactive: 2.59%"}, {"compound": "O=C(NCC1(N2CCOCC2)CCCCC1)c1ccc([N+](=O)[O-])cc1", "activity change, negative = displacement": "inactive: -4.81%"}, {"compound": "CC(C)(C)OC(=O)N1CCC(N(C(=O)c2ccccc2)c2ccc(Cl)cc2)CC1", "activity change, negative = displacement": "inactive: -19.2%"}]}]}
